According to patent US5756537A (Parkash S. Gill, M.D., Inc., priority 1996, dated 1998):

Legend:
Kaposi's sarcoma [1] = assay: Example 3: HIV-negative person with KS; format: in vivo, human; details: HCG 5000 international units daily subcutaneously
From the text: Patient, a very fragile person presented with KS. Apparently the first site of disease was on the right foot with subsequent disease progression to all extremities, trunk, oral cavity, ears, eye lids, and genital organs. They also developed extensive edema of both lower extremities from KS. Other medical problems included hypertension, cardiac arrhythmia, congestive heart failure, and hypothyroidism.
Prior therapy included radiation therapy. The radiated areas included both feet and eye lids. […] Furthermore, KS continued to progress at various sites. Cytotoxic chemotherapy was given with combination chemotherapy consisting of bleomycin, vincristine and adriamycin.
On their insistence, they were first treated with human chorionic gonadotropin (HCG) at a dose of 5000 international units daily subcutaneously. […] The tumor was very extensive and had extensive oozing including blood stained material, which was foul smelling, from the extremities. In addition, they had nodular pedunculated lesions over extensive regions of the body. […] Premedication included dexamethasone, diphenhydramine, and cimetidine.
The tumor resolved completely after five doses of paclitaxel in a period of eight weeks. […] The patient subsequently developed eczema of the legs was treated with local therapy with partial response. […]

Kaposi's sarcoma [2] = assay: Example 4: person with KS; format: in vivo, human; details: intralesional HCG and topical cream of Vit D3 (Dovonex)
Procedure: The patient had extensive cutaneous KS with numerous tumor lesions. The patient had been treated with local therapy including laser therapy. As a result, they had numerous ulcerated tumor lesions. The patient was in severe pain and expressed a desire not to live.
Due to the lack of effective control of the extensive disease with local therapies, they were treated with liposomal daunorubicin (Doxil). […] There was no evidence of new lesions and the existing lesions regressed rapidly. They wished to stop therapy in order to avoid treatment related toxicity. […] They were thus retreated with Doxil, with the expectation that the tumors would respond again.
Due to very extensive disease, a representative area of tumor was monitored.

Substance: HCG: human chorionic gonadotropin (HCG)
- response to therapy (Kaposi's sarcoma [1]): no response
- response (Kaposi's sarcoma [2]): limited local response but progressive systemic KS
